Measurements taken from PMC6896446, “Design, synthesis and molecular modelling studies of some pyrazole derivatives as carbonic anhydrase inhibitors” (Journal of Enzyme Inhibition and Medicinal Chemistry, 2019).

Chains of the proteins cited; added tags and fusions are not shown. Lines headed by an entry give the natural chain unless they say otherwise; changes in a name come on top.
UniProt P00915: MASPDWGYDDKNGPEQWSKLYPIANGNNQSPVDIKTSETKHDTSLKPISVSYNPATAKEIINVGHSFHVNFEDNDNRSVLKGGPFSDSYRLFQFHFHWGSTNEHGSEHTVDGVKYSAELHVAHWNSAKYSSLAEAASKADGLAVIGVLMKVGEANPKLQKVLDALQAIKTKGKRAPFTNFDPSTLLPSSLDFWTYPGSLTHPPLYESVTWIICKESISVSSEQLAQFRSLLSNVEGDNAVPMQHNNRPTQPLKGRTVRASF

Biological target: T1, hCA I (Homo sapiens, UniProt P00915)
T1 construct: The hCA I and II isoenzymes used here were purified from human blood as previously described; from tissue; host or cells: human blood
Experiment: hCA I inhibition, esterase activity method (4-nitrophenylacetate)
Format: biochemical

Q: How did the Ki turn out when `COc1cc(/C=C/C(=O)c2ccc(N)cc2)cc(OC)c1OC` [Compound 1, (E)-1-(4-aminophenyl)-3-(3,4,5-trimethoxyphenyl)prop-2-en-1-one] was run?
A: Its Ki is 10.2 nM.
